Assay results from patent publication US6274368A.
Only a part of the results on these compounds is given; other tests are left out.

System: RDX degrading enzymic activity (partially purified extract)
Experiment: Nitrite / formaldehyde release from explosives by partially purified extract
Settings: 4 M urea, 5 mM DTT

O=[N+]([O-])N1CN([N+](=O)[O-])CN([N+](=O)[O-])C1
release of nitrite compared to spontaneous breakdown over the pH range (26 μg partially purified protein, 0.3 mM RDX, 37° C., 10 minutes, FIG. 6): significantly increases the release of nitrite | amounts of formaldehyde and nitrite released (0.15 mM RDX, Tricine pH 8.5, 37° C., FIG. 7): similar
